Measured values: ChEMBL document CHEMBL2406907, “Chiral Effect of a Phe Residue in Position 3 of the Dmt(1)-L(or D)-Tic(2) Analogues on Opioid Functional Activities” (2013)

Sequences of proteins named here, by UniProt entry; tags and fusion partners are left off.
UniProt P41143, whole entry, looked up: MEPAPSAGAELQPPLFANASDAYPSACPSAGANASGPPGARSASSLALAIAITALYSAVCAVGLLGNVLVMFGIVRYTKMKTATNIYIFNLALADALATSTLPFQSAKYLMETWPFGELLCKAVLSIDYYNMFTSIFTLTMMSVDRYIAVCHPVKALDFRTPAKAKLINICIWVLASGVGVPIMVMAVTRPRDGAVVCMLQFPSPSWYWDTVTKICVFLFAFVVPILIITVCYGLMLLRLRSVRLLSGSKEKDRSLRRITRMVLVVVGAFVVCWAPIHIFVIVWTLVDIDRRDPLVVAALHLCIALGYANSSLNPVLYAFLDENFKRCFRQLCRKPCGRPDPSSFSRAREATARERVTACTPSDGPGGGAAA
UniProt P32300, whole entry, looked up: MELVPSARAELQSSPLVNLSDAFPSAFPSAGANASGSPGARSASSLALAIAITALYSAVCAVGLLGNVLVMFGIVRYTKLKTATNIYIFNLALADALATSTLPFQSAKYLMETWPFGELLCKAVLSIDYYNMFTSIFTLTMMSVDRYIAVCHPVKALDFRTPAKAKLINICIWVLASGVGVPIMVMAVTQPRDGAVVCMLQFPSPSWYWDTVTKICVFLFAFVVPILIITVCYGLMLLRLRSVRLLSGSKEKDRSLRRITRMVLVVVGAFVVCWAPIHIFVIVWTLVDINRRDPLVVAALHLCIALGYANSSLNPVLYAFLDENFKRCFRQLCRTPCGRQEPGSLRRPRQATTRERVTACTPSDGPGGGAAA
UniProt P33535, whole entry, looked up: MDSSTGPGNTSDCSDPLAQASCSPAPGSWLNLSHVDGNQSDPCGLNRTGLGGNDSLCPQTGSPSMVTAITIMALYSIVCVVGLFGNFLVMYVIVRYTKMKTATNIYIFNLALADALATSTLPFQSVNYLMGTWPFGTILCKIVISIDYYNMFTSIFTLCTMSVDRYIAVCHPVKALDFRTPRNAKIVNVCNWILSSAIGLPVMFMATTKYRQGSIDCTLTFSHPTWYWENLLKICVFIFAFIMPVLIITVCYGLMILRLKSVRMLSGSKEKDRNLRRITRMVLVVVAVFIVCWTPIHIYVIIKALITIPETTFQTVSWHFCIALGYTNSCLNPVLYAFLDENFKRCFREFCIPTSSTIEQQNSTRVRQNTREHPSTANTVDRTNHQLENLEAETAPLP

What was measured:
[1] = molecular target: Delta-type opioid receptor (Homo sapiens, UniProt P41143); experiment: Displacement of [3H]DPDPE from human delta opioid receptor expressed in human/mouse HN9.10 cell membranes after 3 hrs by liquid scintillation counting analysis
[2] = molecular target: T1, Delta-type opioid receptor (Mus musculus, UniProt P32300); experiment: Agonist activity at delta opioid receptor in ICR mouse vas deferens assessed as inhibition of electrically-stimulated muscle contraction; conditions: strain ICR
Mu-type opioid receptor = Mu-type opioid receptor (Rattus norvegicus, UniProt P33535); experiment: Displacement of [3H]DAMGO from rat mu opioid receptor expressed in human/mouse HN9.10 cell membranes after 3 hrs by liquid scintillation counting analysis
[3] = molecular target: T1, Delta-type opioid receptor; experiment: Antagonist activity at delta opioid receptor in ICR mouse vas deferens; conditions: strain ICR

Structure (SMILES)	Ki [1] [nM]	IC50 [2] [nM]	pIC50 [1]	Ki (Mu-type opioid receptor) [nM]	pIC50 (Mu-type opioid receptor)	IC50 [3] [nM]
Cc1cc(O)cc(C)c1C[C@H](N)C(=O)N1Cc2ccccc2C[C@H]1C(N)=O	1.2					
Cc1cc(O)cc(C)c1C[C@H](N)C(=O)N1Cc2ccccc2C[C@@H]1C(=O)N[C@H](Cc1ccc(Cl)cc1)C(=O)N1CCC(Cn2cncn2)(C2CCCCC2)CC1	250	810	6.28	6.4	7.87	
Cc1cc(O)cc(C)c1C[C@H](N)C(=O)N1Cc2ccccc2C[C@@H]1C(N)=O	57					
Cc1cc(O)cc(C)c1C[C@H](N)C(=O)N1Cc2ccccc2C[C@@H]1C(=O)NCC(=O)N[C@@H](Cc1ccc(Cl)cc1)C(=O)O		0.21				170
